Patent US20040009189A1, “Antimutagenic effects of ganoderma lucidum spores” (priority 2002, published 2004)

System: mice bone marrow cell chromosomal aberration induced by cyclophosphamide
Conditions: CP 50 mg/kg alone (positive group 4); M; 500 cells
Source text: The test used was the modified mice bone marrow cell micronucleus test as specified in “A Notice Concerning Issuance of the Revised Items of the ‘Health Food Functional Assessment Procedures and Testing Methods’,” a document from the Ministry of Public Health of the People's Republic of China, which is hereby incorporated by reference.
The mice were randomly divided by weight into 9 groups, 5 males and 5 females respectively per group. Animals in each group were given the following treatment:
The drug was prepared as a suspension of the required concentration in distilled water, and administered orally through tube at individual dosages of 0.2 mL/10 g of body weight. The negative control group was given distilled water of the equivalent volume through tube once a day for 30 days continuously. […] 4 hours before the mice were sacrificed they are given colchicine, and the bone marrow was extracted in order to prepare the chromosome samples in the routine way.
Samples from each group were observed. One hundred (100) metaphase cells per mouse were observed, and the chromosomal structures and the numbers of aberrations were recorded. Using SPSS for Windows 8.0 (t-test), a comparative analysis was made of the experimental data from the various dosage groups and the positive groups and tested to find out if there was any significant difference between the males and females within the group.

SMILES: O=P1(N(CCCl)CCCl)NCCCO1 (stereo not shown) [CP, cyclophosphamide]
- Cell Aberration Rate (%): *39.6%
